# Measurements: patent publication US10251849B2, “Sublingual compositions including epinephrine nanoparticles” (NOVA SOUTHEASTERN UNIVERSITY, priority 2012, dated 2019)
# Counter-ions that a name gives are not always drawn. Like-named read-outs stand apart in the source and are kept apart here.
# Protocol: Samples were prepared in triplicates for each concentration, n=3. All prepared samples were processed using LV-1 High Shear Fluid Processor “Microfluidizer” (Microfluidics, Newton, Mass.) equipped with G10Z reaction chamber under various pressures ranging from 15 to 30 KPsi for single or several passes. The microfluidizer-receiving coil was immersed in ice to reduce the heat produced during the process for heat-sensitive drugs. The particle size and potential of the produced nanosuspension were measured. The nanosuspension was centrifuged at 15,000 rpm and 15° C. for 30 minutes to collect the nanoparticles, and the solvent was then removed. The collected nanoparticles were completely dried by speed vacuum concentrator or lyophilization.
# Nanoparticle Characterization: The particle size distribution and zeta potential of the nanosuspension was measured before and after size reduction by volume and by intensity using Mastersizer (Malvern) and Zetasizer Nano-ZS90 (Malvern), respectively. The average of 3 measurements for each sample was reported.
smiles,measurement,setting,value
"CNC[C@H](O)c1ccc(O)c(O)c1 [epinephrine bitartrate, (−)-3,4-dihydroxy-α-[(methylamino)methyl]benzyl alcohol (+)-tartrate (1:1) salt]",Mean ± SD particles size (Z-Average),"0.7 mg/ml, 1 pass at 30 KPsi",706 + 289 nm
same,Mean ± SD particles size (Z-Average),"0.7 mg/ml, 4 passes at 30 KPsi",618 ± 267 nm
same,Mean ± SD particles size (Z-Average),"0.7 mg/ml, 5 passes at 30 KPsi",539 ± 65 nm
same,Mean ± SD particles size (Z-Average),"0.7 mg/ml, 6 passes at 30 KPsi",501 ± 34 nm
same,Mean ± SD particles size (Z-Average),"1.4 mg/ml, 1 pass at 30 KPsi",665 + 47 nm
same,Mean ± SD particles size (Z-Average),"1.4 mg/ml, 2 passes at 30 KPsi",339 ± 34 nm
same,Mean ± SD particles size (Z-Average),"1.4 mg/ml, 4 passes at 30 KPsi",456 ± 40 nm
same,Mean ± SD particles size (Z-Average),"2.8 mg/ml, 1 pass at 30 KPsi",249 + 38 nm
same,Mean ± SD particles size (Z-Average),"2.8 mg/ml, 2 passes at 30 KPsi",827 ± 114 nm
same,Mean ± SD particles size (Z-Average),"2.8 mg/ml, 4 passes at 30 KPsi",976 ± 163 nm
same,Mean ± SD particles size (Z-Average),"2.8 mg/ml, 5 passes at 30 KPsi",1713 ± 36 nm
same,Mean ± SD particles size (Z-Average),"2.8 mg/ml, 6 passes at 30 KPsi",1161 ± 127 nm
same,Mean ± SD particles size (Z-Average),"3.5 mg/ml, 1 pass at 30 KPsi",1211 + 389 nm
same,Mean ± SD particles size (Z-Average),"3.5 mg/ml, 2 passes at 30 KPsi",1418 ± 79 nm
same,Mean ± SD particles size (Z-Average),"4.5 mg/ml, 1 pass at 30 KPsi",1091 + 43 nm
same,Mean ± SD particles size (Z-Average),"4.5 mg/ml, 2 passes at 30 KPsi",1242 ± 28 nm
